# Results published in paper PMC6272913, “Synthesis of Bioactive 2-(Arylamino)thiazolo[5,4-f]-quinazolin-9-ones via the Hügershoff Reaction or Cu- Catalyzed Intramolecular C-S Bond Formation” (Molecules, 2016).
# How the values were obtained:
# CDK5/p25 = molecular target: T1, CDK5/p25 (Homo sapiens, UniProt Q00535); test: CDK5/p25 in vitro kinase assay (histone H1, [γ-33P] ATP); format: biochemical
# T1 construct: made in house
# DYRK1A = DYRK1A (Rattus norvegicus, UniProt Q63470); test: DYRK1A in vitro kinase assay (Woodtide); format: biochemical; conditions: 15 μM ATP, 30 min at 30 °C, triplicate; >10 = less than 50% inhibition at 10 µM
smiles,measurement,setting,value
"COc1ccc2c(c1)[nH]c1c(C)nccc12 [Harmine, reference compound]",IC50,CDK5/p25,> 10000 nM
same,IC50,DYRK1A,29 nM
